Assay results reported in PMC11345844, “Non-Covalent Inhibitors of SARS-CoV-2 Papain-Like Protease (PLpro): In Vitro and In Vivo Antiviral Activity” (Journal of Medicinal Chemistry, 2024).
pIC50: −log10 of the molar value. Where a name gives a salt, the structure may show the parent alone. Read-outs that look alike come from different tables or passages of the source.

How the values were obtained:
in vivo = settings: female, C57B/6, mouse; for concentration at […] / concentration at 0.5 h / concentration at 1 min: mean; for concentration at […]: 5 mg/kg i.v. bid for 0.5 days, […] after final injection (Table S1); for concentration at 0.5 h: 10 mg/kg (s.c. qd) for 1 days, 0.5 h (Table S5); for concentration at 1 min: 10 mg/kg i.v. qd for 2 days, 1 min after final injection (Table S3)
SARS-CoV-2 PLpro [1] = target: T1, SARS-CoV-2 PLpro (Severe acute respiratory syndrome coronavirus 2, UniProt P0DTD1); settings: for pIC50: read-out: Enzyme inhibition IC50
SARS-CoV-2 PLpro [2] = target: T1, SARS-CoV-2 PLpro; experiment: biochemical

**Q.** With `Cc1ccc(NC2CNC2)cc1C(=O)N[C@H](C)c1cccc(-c2ccc(CNC3CCCC3)s2)c1` [10 (HCl salt)] as the molecule, how does the Kp at […] (in vivo; 5 mg/kg) read?
**A.** Its Kp at […] is 5.36.

**Q.** What about the concentration at […] (in vivo; 5 mg/kg, Lung concentration) of the same molecule?
**A.** The concentration at […] was 10200 ng/mL.

**Q.** What about the concentration at […] (in vivo; 5 mg/kg, Plasma concentration) of the same molecule?
**A.** The concentration at […] was 1910 ng/mL.

**Q.** And the Kp at 1 min (in vivo; 10 mg/kg)?
**A.** Its Kp at 1 min is 3.26.

**Q.** And the concentration at 0.5 h (in vivo; 10 mg/kg, Lung concentration)?
**A.** Its concentration at 0.5 h is 90000 ng/mL.

**Q.** And the concentration at 1 min (in vivo; 10 mg/kg, Lung concentration)?
**A.** The concentration at 1 min was 36000 ng/mL.

**Q.** What about the concentration at 0.5 h (in vivo; 10 mg/kg, Plasma concentration) of the same molecule?
**A.** The concentration at 0.5 h was 7030 ng/mL.

**Q.** What about the concentration at 1 min (in vivo; 10 mg/kg, Plasma concentration) of the same molecule?
**A.** Its concentration at 1 min is 11100 ng/mL.

**Q.** And the Kp at 0.5 h (in vivo; sc, 100 mg/kg)?
**A.** The Kp at 0.5 h was 12.9.

**Q.** For `Cc1ccc(NC2CNC2)cc1C(=O)N[C@H](C)c1cccc(-c2ccc(CNC3CCCC3)s2)c1` [Compound 10], which “plasma AUCinf” value (i.v. mouse, 2 mg/kg) is on record?
**A.** Its value is 305 ± 46 ng·h/mL.

**Q.** And the “plasma AUCinf” value (s.c. mouse, 50 mg/kg)?
**A.** Its value is 15,067 ± 1298 h × ng/mL.

**Q.** With `Cc1ccc(NC2CNC2)cc1C(=O)N[C@H](C)c1cccc(-c2cc(C)c(CNC3CCCC3)s2)c1` [Compound 16, (R)-5-(Azetidin-3-ylamino)-N-(1-(3-(5-((cyclopentylamino)methyl)-4-methylthiophen-2-yl)phenyl)ethyl)-2 Methylbenzamide] as the molecule, how does the pIC50 (SARS-CoV-2 PLpro [1]) read?
**A.** The pIC50 was 6.19.

**Q.** What about the pIC50 (SARS-CoV-2 PLpro [2]) of the same molecule?
**A.** Its pIC50 is about 6.15.

**Q.** With `Cc1ccc(NC2CNC2)cc1C(=O)N[C@H](C)c1cccc(-c2ccc(CN)s2)c1` [Compound 21, (R)-N-(1-(3-(5-(Aminomethyl)thiophen-2-yl)phenyl)ethyl)-5-(azetidin-3-ylamino)-2-methylbenzamide] as the molecule, how does the pIC50 (SARS-CoV-2 PLpro [2]) read?
**A.** The pIC50 was 5.81.

**Q.** With `Cc1ccc(NC2CNC2)cc1C(=O)N[C@H](C)c1cccc(-c2ccc(C#N)s2)c1` [Compound 23, (R)-5-(Azetidin-3-ylamino)-N-(1-(3-(5-cyanothiophen-2-yl)phenyl)ethyl)-2-methylbenzamide] as the molecule, how does the pIC50 (SARS-CoV-2 PLpro [1]) read?
**A.** Its pIC50 is 5.26.

**Q.** And the pIC50 (SARS-CoV-2 PLpro [2])?
**A.** Its pIC50 is 5.22 to 5.40.

**Q.** With `Cc1ccc(NC2CNC2)cc1C(=O)N[C@H](C)c1cccc(-c2ccc(CN[C@H]3CC[C@@H](C(=O)O)C3)s2)c1` [Compound 39, (1R,3S)-3-(((5-(3-((R)-1-(5-(Azetidin-3-ylamino)-2-methylbenzamido)ethyl)phenyl)thiophen-2-yl)methyl)amino)cyclopentane-1-carboxylic Acid] as the molecule, how does the pIC50 (SARS-CoV-2 PLpro [1]) read?
**A.** The pIC50 was 6.49.

**Q.** What about the pIC50 (SARS-CoV-2 PLpro [2]) of the same molecule?
**A.** The pIC50 was over 6.30.

**Q.** With `Cc1ccc(OC2CCNCC2)cc1C(=O)N[C@H](C)c1cccc(-c2ccc(CNC3CCCC3)s2)c1` [Compound 44, (R)-N-(1-(3-(5-((Cyclopentylamino)methyl)thiophen-2-yl)phenyl)ethyl)-2-methyl-5-(piperidin-4-yloxy)benzamide] as the molecule, how does the pIC50 (SARS-CoV-2 PLpro [1]) read?
**A.** Its pIC50 is 6.12.

**Q.** What about the pIC50 (SARS-CoV-2 PLpro [2]) of the same molecule?
**A.** The pIC50 was about 6.15.

**Q.** With `Cc1ccc(OC2CNC2)cc1C(=O)N[C@H](C)c1cccc(-c2ccc(CN[C@H]3CC[C@@H](C(=O)O)C3)s2)c1` [Compound 46, (1R,3S)-3-(((5-(3-((R)-1-(5-(Azetidin-3-yloxy)-2-methylbenzamido)ethyl)phenyl)thiophen-2-yl)methyl)amino)cyclopentane-1-carboxylic Acid] as the molecule, how does the pIC50 (SARS-CoV-2 PLpro [1]) read?
**A.** The pIC50 was 6.44.

**Q.** And the pIC50 (SARS-CoV-2 PLpro [2])?
**A.** Its pIC50 is over 6.30.

**Q.** With `Cc1ccc(OC2CCNC2)cc1C(=O)N[C@H](C)c1cccc(-c2ccc(CN3CCCC3)s2)c1` (stereo partly drawn) [Compound 49, 2-Methyl-N-((R)-1-(3-(5-(pyrrolidin-1-ylmethyl)thiophen-2-yl)phenyl)ethyl)-5-(pyrrolidin-3-yloxy)benzamide] as the molecule, how does the pIC50 (SARS-CoV-2 PLpro [1]) read?
**A.** The pIC50 was 5.92.

**Q.** With `CC(=O)Nc1ccc(C)c(C(=O)N[C@H](C)c2cccc(-c3ccc(CNC4CCCC4)s3)c2)c1` [Compound 50, (R)-5-Acetamido-N-(1-(3-(5-((cyclopentylamino)methyl)thiophen-2-yl)phenyl)ethyl)-2-methylbenzamide] as the molecule, how does the pIC50 (SARS-CoV-2 PLpro [1]) read?
**A.** Its pIC50 is 5.75.

**Q.** With `CC(=O)Nc1ccc(C)c(C(=O)N[C@H](C)c2cccc(-c3ccc(CN4CCCC4)s3)c2)c1` [Compound 51, (R)-5-Acetamido-2-methyl-N-(1-(3-(5-(pyrrolidin-1-ylmethyl)thiophen-2-yl)phenyl)ethyl)benzamide] as the molecule, how does the pIC50 (SARS-CoV-2 PLpro [1]) read?
**A.** Its pIC50 is 5.62.

**Q.** With `Cc1ccc(N)cc1C(=O)N[C@H](C)c1cccc(-c2ccc(CNC3CCCC3)s2)c1` [Compound 53, (R)-5-Amino-N-(1-(3-(5-((cyclopentylamino)methyl)thiophen-2-yl)phenyl)ethyl)-2-methylbenzamide] as the molecule, how does the pIC50 (SARS-CoV-2 PLpro [1]) read?
**A.** The pIC50 was 5.86.

**Q.** With `Cc1ccc(N)cc1C(=O)N[C@H](C)c1cccc(-c2ccc(CN[C@H]3CC[C@@H](O)C3)s2)c1` [Compound 55, 5-Amino-N-((R)-1-(3-(5-((((1S,3R)-3-hydroxycyclopentyl)amino)methyl)thiophen-2-yl)phenyl)ethyl)-2-methylbenzamide] as the molecule, how does the pIC50 (SARS-CoV-2 PLpro [1]) read?
**A.** Its pIC50 is 6.22.

**Q.** With `Cc1ccc(OC2CNC2)cc1C(=O)N[C@H](C)c1cccc(-c2ccc(CNC3CCCC3)o2)c1` [Compound 56, (R)-5-(Azetidin-3-yloxy)-N-(1-(3-(5-((cyclopentylamino)methyl)furan-2-yl)phenyl)ethyl)-2-methylbenzamide] as the molecule, how does the pIC50 (SARS-CoV-2 PLpro [1]) read?
**A.** The pIC50 was 5.55.

**Q.** With `Cc1ccc(NC2CNC2)cc1C(=O)N[C@H](C)c1cccc(-c2cccn2C)c1` [Compound 59, (R)-5-(Azetidin-3-ylamino)-2-methyl-N-(1-(3-(1-methyl-1H-pyrrol-2-yl)phenyl)ethyl)benzamide] as the molecule, how does the pIC50 (SARS-CoV-2 PLpro [1]) read?
**A.** The pIC50 was 5.01.

**Q.** With `Cc1ccc(NC2CNC2)cc1C(=O)N[C@H](C)c1cccc(-c2ccc(CN[C@H]3CC[C@@H](OC(=O)[C@@H](N)C(C)C)C3)s2)c1` [Compound 60, (1R,3S)-3-(((5-(3-((R)-1-(5-(Azetidin-3-ylamino)-2-methylbenzamido)ethyl)phenyl)thiophen-2-yl)methyl)amino)cyclopentyl L-valinate] as the molecule, how does the pIC50 (SARS-CoV-2 PLpro [1]) read?
**A.** Its pIC50 is 6.25.

**Q.** What about the pIC50 (SARS-CoV-2 PLpro [2]) of the same molecule?
**A.** The pIC50 was over 6.22.

**Q.** With `Cc1ccc(NC2CNC2)cc1C(=O)N[C@H](C)c1cccc(-c2ccc(CN[C@H]3CC[C@@H](OC(=O)[C@@H](NC(=O)[C@@H](N)C(C)C)C(C)C)C3)s2)c1` [Compound 61, (1R,3S)-3-(((5-(3-((R)-1-(5-(Azetidin-3-ylamino)-2-methylbenzamido)ethyl)phenyl)thiophen-2-yl)methyl)amino)cyclopentyl L-valyl-L-valinate] as the molecule, how does the pIC50 (SARS-CoV-2 PLpro [1]) read?
**A.** Its pIC50 is 6.30.

**Q.** What about the pIC50 (SARS-CoV-2 PLpro [2]) of the same molecule?
**A.** The pIC50 was over 6.22.

**Q.** With `CC(=O)OC(C)OC(=O)N1CC(Nc2ccc(C)c(C(=O)N[C@H](C)c3cccc(-c4ccc(CNC(=O)C5CCCC5)s4)c3)c2)C1` (stereo partly drawn) [Compound 62, 1-Acetoxyethyl 3-((3-(((R)-1-(3-(5-(cyclopentanecarboxamidomethyl)thiophen-2-yl)phenyl)ethyl)carbamoyl)-4-methylphenyl)amino)azetidine-1-carboxylate] as the molecule, how does the pIC50 (SARS-CoV-2 PLpro [1]) read?
**A.** Its pIC50 is 6.22.

**Q.** Which results are given for `Cc1ccc(OC2CNC2)cc1C(=O)N[C@H](C)c1cccc(-c2ccc(CN[C@H]3CC[C@@H](C(=O)OC[C@H]4O[C@@H](n5ccc(N)nc5=O)[C@H](O)[C@@H]4O)C3)s2)c1` [Compound 63, ((2R,3S,4R,5R)-5-(4-Amino-2-oxopyrimidin-1(2H)-yl)-3,4-dihydroxytetrahydrofuran-2-yl)methyl (1R,3S)-3-(((5-(3-((R)-1-(5-(azetidin-3-yloxy)-2-methylbenzamido)ethyl)phenyl) Thiophen-2-yl)methyl)amino)cyclopentane-1-carboxylate]?
**A.** potency for PLpro inhibition (SARS-CoV-2 PLpro [1]): submicromolar potency; pIC50 (SARS-CoV-2 PLpro [1]): 6.33

**Q.** Which “potency for PLpro inhibition” value (SARS-CoV-2 PLpro [1]) does the source give for `Cc1ccc(NC2CNC2)cc1C(=O)N[C@H](C)c1cccc(-c2ccc(CN[C@H]3CC[C@@H](C(=O)OC[C@H]4O[C@@H](n5ccc(NO)nc5=O)[C@H](O)[C@@H]4O)C3)s2)c1` [Compound 64, ((3S,4R,5R)-3,4-Dihydroxy-5-(4-(hydroxyamino)-2-oxopyrimidin-1(2H)-yl)tetrahydrofuran-2-yl)methyl (1R,3S)-3-(((5-(3-((R)-1-(5-(azetidin-3-ylamino)-2-methylbenzamido)ethyl)phenyl)thiophen-2-yl)methyl)amino)cyclopentane-1-carboxylate] here?
**A.** The value was “submicromolar potency”.

**Q.** And the pIC50 (SARS-CoV-2 PLpro [1])?
**A.** Its pIC50 is 6.21.
